pKi: −log10 of the molar value.

Chains of the proteins cited; added tags and fusions are not shown.
UniProt P42337, whole entry: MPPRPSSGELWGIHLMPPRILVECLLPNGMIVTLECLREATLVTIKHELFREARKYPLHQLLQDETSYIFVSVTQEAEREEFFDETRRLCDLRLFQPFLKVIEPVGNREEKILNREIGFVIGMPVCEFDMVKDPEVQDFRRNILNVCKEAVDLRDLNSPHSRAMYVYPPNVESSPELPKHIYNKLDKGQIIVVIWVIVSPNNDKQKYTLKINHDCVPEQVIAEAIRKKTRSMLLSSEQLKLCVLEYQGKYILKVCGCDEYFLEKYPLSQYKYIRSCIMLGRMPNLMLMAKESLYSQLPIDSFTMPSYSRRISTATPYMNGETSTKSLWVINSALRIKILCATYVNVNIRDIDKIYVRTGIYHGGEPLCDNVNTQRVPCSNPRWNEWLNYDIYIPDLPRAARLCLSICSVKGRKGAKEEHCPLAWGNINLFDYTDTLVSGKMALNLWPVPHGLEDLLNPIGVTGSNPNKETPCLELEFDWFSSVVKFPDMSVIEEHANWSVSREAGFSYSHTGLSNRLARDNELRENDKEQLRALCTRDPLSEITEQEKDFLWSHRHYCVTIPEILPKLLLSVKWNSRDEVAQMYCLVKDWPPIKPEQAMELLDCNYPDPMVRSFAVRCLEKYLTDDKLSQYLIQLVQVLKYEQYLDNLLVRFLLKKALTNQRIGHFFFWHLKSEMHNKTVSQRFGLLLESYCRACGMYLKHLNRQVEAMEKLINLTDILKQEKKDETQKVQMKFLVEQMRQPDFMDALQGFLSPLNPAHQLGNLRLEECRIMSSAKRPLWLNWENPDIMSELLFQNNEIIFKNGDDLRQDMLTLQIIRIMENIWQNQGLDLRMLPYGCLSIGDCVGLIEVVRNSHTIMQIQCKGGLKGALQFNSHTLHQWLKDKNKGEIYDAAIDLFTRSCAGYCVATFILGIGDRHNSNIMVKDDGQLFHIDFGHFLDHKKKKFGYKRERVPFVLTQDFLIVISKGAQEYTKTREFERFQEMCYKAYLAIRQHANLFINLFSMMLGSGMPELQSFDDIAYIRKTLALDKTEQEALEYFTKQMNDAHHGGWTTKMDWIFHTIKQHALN

For orientation: pKi means the Ki on a negative log10 scale, so that one unit is a factor of ten.

In this experiment the target is Phosphatidylinositol 4,5-bisphosphate 3-kinase catalytic subunit alpha isoform (Mus musculus, UniProt P42337).

`COc1ccc(-c2cc3c(C)nc(N)nc3n(C3CCC3)c2=O)cn1` gave a negative logarithm of the Ki (pKi) of 8.43.

The values above are taken from ChEMBL document CHEMBL2057195, “Design and synthesis of a novel pyrrolidinyl pyrido pyrimidinone derivative as a potent inhibitor of PI3Kα and mTOR” (Bioorg Med Chem Lett, 2012).
